Target: T1, STAT3-DNA binding (Homo sapiens, UniProt P40763)
T1 construct: Nuclear extracts from MDA-MB-468 human breast cancer cells; endogenous in cells; host or cells: MDA-MB-468 human breast cancer cells (nuclear extract)
Assay: STAT3-DNA binding filter plate assay with nuclear extract from MDA-MB-468 cells
Assay type: biochemical
Conditions: MDA-MB-468 nuclear extract
Method: Nuclear extracts from MDA-MB-468 human breast cancer cells were incubated with a biotin-conjugated STAT3 probe and tested for STAT3 DNA binding using a filter plate assay. Briefly, nuclear extract preparation was carried out as previously described (Zhang, et al., Orally bioavailable small-molecule inhibitor of transcription factor Stat3 regresses human breast and lung cancer xenografts. Proceedings of the National Academy of Sciences of the United States of America 2012, 109, 9623-9628). The STAT3-DNA binding filter plate assay was performed following the manual of the filter plate assay kit (Signosis, Sunnyvale, Calif.), as described previously (Zhang, et al., A Novel Inhibitor of STAT3 Homodimerization Selectively Suppresses STAT3 Activity and Malignant Transformation. Cancer Research 2013, 73, 1922-1933). The TF Binding buffer was mixed with the STAT3 probe (biotin labeled STAT3 DNA binding sequence) and nuclear extract and incubated at 16° C. for 30 minutes to form the STAT3-DNA complex. […] Eluted probes were then hybridized into 96-well hybridization plates for quantitative analysis. The captured STAT3 probe was detected by conjugation with streptavidin-HRP. The chemiluminescence of each well was read using 2104 EnVisionR Multilabel Reader (Perkin Elmer,) within 5 minutes after mixture with substrates. […]

The chains behind the UniProt entries cited, without tags or fusion partners. Residues count along the entry.
UniProt P40763, 2-770 limits assumed: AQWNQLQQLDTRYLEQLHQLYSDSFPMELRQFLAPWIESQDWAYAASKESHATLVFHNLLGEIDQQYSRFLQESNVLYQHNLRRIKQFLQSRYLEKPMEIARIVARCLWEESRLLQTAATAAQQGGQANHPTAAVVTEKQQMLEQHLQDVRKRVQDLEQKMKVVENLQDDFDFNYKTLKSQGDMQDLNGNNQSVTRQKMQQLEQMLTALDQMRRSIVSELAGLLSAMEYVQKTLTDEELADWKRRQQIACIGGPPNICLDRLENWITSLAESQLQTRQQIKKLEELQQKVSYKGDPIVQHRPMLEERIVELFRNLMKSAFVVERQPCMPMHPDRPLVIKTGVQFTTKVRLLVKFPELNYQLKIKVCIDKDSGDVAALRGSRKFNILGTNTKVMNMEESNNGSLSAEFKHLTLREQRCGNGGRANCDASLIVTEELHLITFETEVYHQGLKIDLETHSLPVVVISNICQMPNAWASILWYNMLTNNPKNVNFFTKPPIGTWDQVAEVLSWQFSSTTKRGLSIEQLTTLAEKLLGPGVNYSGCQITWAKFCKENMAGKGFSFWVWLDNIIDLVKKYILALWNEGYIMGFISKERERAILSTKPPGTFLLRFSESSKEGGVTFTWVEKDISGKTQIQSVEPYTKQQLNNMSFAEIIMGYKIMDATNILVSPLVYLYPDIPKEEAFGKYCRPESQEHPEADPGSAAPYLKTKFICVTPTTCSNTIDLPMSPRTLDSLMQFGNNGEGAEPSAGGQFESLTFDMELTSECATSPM

inhibition of STAT3-DNA binding (at 10 μM): 40%
inhibition of STAT3-DNA binding (at 100 μM): 60%
Substance: GpYLPQTV (phosphotyrosine; listed as Homo sapiens)

From patent US10351596B2, “γ-AA-peptide STAT3/DNA inhibitors and methods of use” (H. Lee Moffitt Cancer Center and Research Institute, Inc., priority 2014, dated 2019)
